In the library only some 2.8% were active in any assay of this set; here they are far more common.
MITF act = MITF TRPM1 promoter activation in melanoma cells; SK-MEL-5 TRPM1-promoter luciferase, 24 h; % of positive control, neutral wells = 0; activation, % at 12.5 µM; 300,000 compounds, 0.75% hits;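 active = mean activation of at least 80% with every replicate also reaching 80%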;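 note: 0% = neutral control wells and 100% = parthenolide positive control wells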
esBAF inh = inhibitors of esBAF chromatin remodeling in mouse ES cells; reporter increase, % at 12.5 µM; 350,000 compounds, 2% hits; Bmi1-luciferase knock-in reporter, 24 h; 100% = twice the neutral-well signal; AID 602393; in the data active = activation above about 40%;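 note: 0% = median of the plate's neutral control wells and 100% = double that signal; a rise in the Bmi1 reporter signal indicates esBAF inhibition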
miR-122 sensor = miR-122 inhibition in Huh7 cells; Huh7 miR-122 Renilla luciferase sensor, 48 h; neutral wells = 0, positive control = 100; activation (reporter increase), % at 12.5 µM; 340,000 compounds, 0.3% hits;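 active = mean replicate activation score at least 90 and every replicate individually at or above 90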;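 note: higher luciferase means less miR-122 activity so hits act as miR-122 inhibitors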
Wnt bcat act = activates Wnt/beta-catenin signaling in a reporter cell assay; activation, % at 9.35 µM; activator, plate reader; 300,000 compounds, 1.2% hits; AID 743398; in the data active = activation above about 30%, passing the limit was not always enough;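 note: 0% = neutral control wells and 100% = positive control wells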
UUG fidelity = modulators of start codon recognition fidelity in yeast; AID 602363; hit rate 0.13% among 350,000; activity score, % at 18.7 µM; S. cerevisiae UUG-firefly luciferase reporter, luminescence/redox ratio;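 active = replicate mean at a twofold rise or more, about +100% in these data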;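 note: firefly luciferase made from a UUG start codon reports start codon fidelity; reporter light over untreated wells divided by growth signal over untreated wells; some hits fall short of that in this replicate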
PglD inh = PglD (C. jejuni) enzyme inhibition; purified PglD enzyme, DTNB colorimetric CoA detection; inhibition, % at 12.5 µM; 360,000 compounds, 0.098% hits; AID 602405; in the data active = inhibition above about 16%, passing the limit was not always enough
Active calls of the source: *; nt = not tested or not shown; [ ] = remark or other dose.

(1) CCSc1nc(N)nc(-c2cccs2)c1C#N
(2) CCN(CC)C(=O)CSc1nc(N)c(C#N)c(-c2cccs2)c1C#N
(3) COc1ccc(-c2ccc3c(n2)CCCN3Cc2ccccc2C(F)(F)F)cc1
(4) Cc1ccc(-c2cc3nc(-c4ccccc4)cc(N)n3n2)cc1
(5) Cc1ccc(-c2cc(N)n(-c3ccc(C)cc3)n2)cc1
(6) Cc1ccc(-c2cc(N)n(-c3ccc(F)cc3)n2)cc1
(7) Cc1ccc(-n2nc(-c3ccccc3)cc2Nc2ccccc2N)cc1
(8) Cc1ccc(-c2cc(N)n3nc(-c4ccc(C)cc4)cc3n2)cc1
(9) COc1ccc(NC(=O)Nc2cccc3c2O[C@@H](CN(C)S(=O)(=O)c2ccc(Cl)cc2)[C@H](C)CN([C@@H](C)CO)C3=O)cc1
(10) CC(C)NC(=O)N(C)C[C@@H]1OCCCC[C@@H](C)Oc2ccc(NC(=O)CCCN(C)C)cc2C(=O)N([C@@H](C)CO)C[C@H]1C

| assay / entry | 1 | 2 | 3 | 4 | 5 | 6 | 7 | 8 | 9 | 10 |
| --- | --- | --- | --- | --- | --- | --- | --- | --- | --- | --- |
| Wnt bcat act | -4 | 7 | 38* | 42* | nt | 9 | -7 | -2 | nt | nt |
| esBAF inh | 49* | -2 | nt | nt | 47* | nt | nt | -1 | 3 | nt |
| UUG fidelity | -26 | -3 | nt | 20 | -17 | nt | nt | -9 | -4 | nt |
| MITF act | 30 | -7 | nt | 64 | 87* | 100* | 11 | 12 | nt | nt |
| miR-122 sensor | -11 | 9 | nt | 0 | -1 | nt | nt | 1 | 3[16.7 µM] | -2[16.7 µM] |
| PglD inh | 2 | 3 | nt | 6 | 0 | nt | nt | -9 | 1 | 1 |

Single entries from the results shown.
Under MITF act, Cc1ccc(-c2cc(N)n3nc(-c4ccc(C)cc4)cc3n2)cc1 is listed with 12
Under MITF act, Cc1ccc(-c2cc(N)n(-c3ccc(F)cc3)n2)cc1 is listed with 100*
Under MITF act, Cc1ccc(-c2cc(N)n(-c3ccc(C)cc3)n2)cc1 is listed with 87*

New compounds follow
(11) O=C(NCC[C@@H]1CC[C@@H](NC(=O)C2CCOCC2)[C@@H](CO)O1)c1ccc(F)cc1
(12) Cc1nc2c3cc(Cl)ccc3n(CCN3CCCCC3)c2s1
(13) COC(=O)c1sccc1NC(=O)Nc1ccc(C)cc1
(14) COC(=O)c1sccc1NC(=S)Nc1ccc(F)cc1
(15) COC(=O)c1sccc1NC(=O)Nc1cc(C)cc(C)c1
(16) C[C@@H]1CN([C@H](C)CO)C(=O)c2cc(NC(=O)Cc3cn(C)c4ccccc34)ccc2O[C@@H]1CN(C)C(=O)Nc1ccc(F)cc1
(17) CO[C@H]1CN(C)C(=O)c2ccc(NC(=O)C3CC3)cc2OC[C@H](C)N(C(=O)Cc2ccccn2)C[C@H]1C
(18) C(#Cc1ccccc1)Cn1nnc2ccccc21
(19) O=C(O)Cn1nnc2ccccc21
(20) O=C(Cn1nnc2ccccc21)c1ccc(Cl)cc1

| assay / entry | 11 | 12 | 13 | 14 | 15 | 16 | 17 | 18 | 19 | 20 |
| --- | --- | --- | --- | --- | --- | --- | --- | --- | --- | --- |
| Wnt bcat act | nt | nt | -2 | nt | 0 | nt | nt | nt | 2 | 45* |
| esBAF inh | -6 | 51* | 44* | 1 | 80* | 2 | 1 | 60* | nt | 15 |
| UUG fidelity | 4 | -3 | -36 | -22 | 1 | 7 | 5 | -17 | 13 | -8 |
| MITF act | nt | -23 | 20 | -5 | 42 | nt | nt | 86* | 8 | 74 |
| miR-122 sensor | nt | 8 | -3 | 147* | 4 | -9[16.7 µM] | nt | 23 | nt | -2 |
| PglD inh | 0 | 4 | 1 | -2 | -4 | -1 | -6 | -2 | 2 | 12 |

(21) O=C(Cn1nnc2ccccc21)c1ccc([N+](=O)[O-])cc1
(22) O=C(O)CCn1nnc2ccccc21
(23) C[C@@H]1CCCCO[C@@H](CN(C)Cc2ccncc2)[C@@H](C)CN([C@H](C)CO)C(=O)c2cc(NC(=O)CCCN(C)C)ccc2O1
(24) O=C(c1ccccc1)C1OC1C(=O)c1ccccc1 (stereo not drawn)
(25) C[C@H](CO)N1C[C@H](C)[C@H](CN(C)CC2CC2)OCCCC[C@H](C)Oc2ccc(NS(=O)(=O)c3ccc(Cl)cc3)cc2C1=O
(26) Brc1ccc(-c2cn3c(n2)SCC3)cc1
(27) c1ccc(-c2cn3c(n2)SCC3)cc1
(28) Oc1ccc(-c2cn3c(n2)SCC3)cc1
(29) Clc1ccc(-c2cn3c(n2)SCC3)cc1
(30) C[C@@H]1CCCCO[C@H](CN(C)C)[C@H](C)CN([C@H](C)CO)C(=O)c2cc(NS(=O)(=O)c3ccc(Cl)cc3)ccc2O1
(31) c1ccc(Cn2ccnc2-c2ccco2)cc1
(32) c1ccc(Cn2ccnc2C2OCCO2)cc1
(33) COc1ccc(NC(=O)CN(C)C(=O)CNC(=O)c2sc3ccccc3c2Cl)cc1

| assay / entry | 21 | 22 | 23 | 24 | 25 | 26 | 27 | 28 | 29 | 30 | 31 | 32 | 33 |
| --- | --- | --- | --- | --- | --- | --- | --- | --- | --- | --- | --- | --- | --- |
| Wnt bcat act | 2 | 47* | nt | 13 | nt | 42* | -1 | nt | 47* | nt | 28 | -7 | 2 |
| esBAF inh | nt | nt | 4 | 53* | -3 | 58* | 24 | 2 | 56* | -3 | 56* | nt | 51* |
| UUG fidelity | nt | 5 | 8 | -34 | 6 | -16 | -23 | -23 | nt | 15 | -17 | -11 | -7 |
| MITF act | 8 | 1 | nt | -35 | nt | 66 | 51 | 19 | 80 | nt | 52 | nt | 93* |
| miR-122 sensor | nt | 2 | 5[16.7 µM] | nt | -1[16.7 µM] | -25 | 0 | 3 | -2 | 1[16.7 µM] | 4 | nt | -1 |
| PglD inh | nt | -1 | -1 | 1 | -3 | -5 | 0 | 4 | nt | 4 | -3 | -2 | -3 |

Bioassay records as filed in PubChem BioAssay.
